Literature values, collected in paper PMC11253567, “Drug repurposing of pyrazolotriazine derivatives as potential anti-SARS-CoV-2 agents: in vitro and in silico studies” (BMC Chemistry, 2024).

System: SARS-CoV-2 (hCoV-19/Egypt/NRC-03/2020)
Settings: reference drug; cited from earlier work

## CCC(CC)COC(=O)[C@H](C)N[P@](=O)(OC[C@H]1O[C@@](C#N)(c2ccc3c(N)ncnn23)[C@H](O)[C@@H]1O)Oc1ccccc1 [Remdesivir]
  SI (CC50/IC50): 17.18
